For experiment [1], the target named is HMG-CoA-Reduktase (Rattus norvegicus, UniProt P51639). The experiment in a line: Inhibition of HMG-CoA reductase activity in solubilised enzyme preparations from rat liver microsomes. To be noted: read-out: IC50-Wert M, solubilised enzyme from liver microsomes of cholestyramine-induced rats, substrate (S,R)14C-HMG-CoA, mean of 3 parallel samples. The text has this:
1) Inhibierung der HMG-CoA-Reduktase-Aktivität an solubilisierten Enzympräparationen aus Ratten-Lebermikrosomen
Die HMG-CoA-Reduktase-Aktivität wurde an solubilisierten Enzympräparationen aus Lebermikrosomen von Ratten gemessen, die nach Umstellung im Tag-Nacht-Rhythmus mit Cholestyramin (@Cuemid) induziert wurden. Als Substrat diente (S,R)^14C-HMG-CoA, die Konzentration von NADPH wurde während der Inkubation durch ein regenerierendes System aufrechterhalten. Die Abtrennung von ^14C-Me- valonat von Substrat und anderen Produkten (z.B. ^14C-HMG) erfolgte über Säulenelution, wobei das Elutionsprofil jeder Einzelprobe ermittelt wurde. Auf die ständige Mitführung von ^3H-Mevalonat wurde verzichtet, weil es bei der Bestimmung um die Relativangabe der Hemmwirkung handelt. In eine Versuchsreihe wurden jeweils die enzymfreie Kontrolle, der enzymhaltige Normalansatz (= 100%) und solche mit Präparatezusätzen zusammen behandelt. Jeder Einzelwert wurde als Mittelwert aus 3 Parallelproben gebildet. Die Signifikanz der Mittelwertsunterschiede zwischen präparatefreien und präparatehaltigen Proben wurde nach dem t-Test beurteilt. Nach der oben beschriebenen Methode wurden von den erfindungsgemäßen Verbindungen z.B. folgende Hemmwerte auf die HMG-CoA-Reduktase ermittelt (IC50-Wert M = molare Konzentration der Verbindung, die für eine 50%ige Hemmung erforderlich ist): […]
For orientation: Liver microsomes are vesicles of endoplasmic reticulum, rich in cytochrome P450 enzymes.

Chains of the proteins cited; added tags and fusions are not shown.
UniProt P51639, whole entry: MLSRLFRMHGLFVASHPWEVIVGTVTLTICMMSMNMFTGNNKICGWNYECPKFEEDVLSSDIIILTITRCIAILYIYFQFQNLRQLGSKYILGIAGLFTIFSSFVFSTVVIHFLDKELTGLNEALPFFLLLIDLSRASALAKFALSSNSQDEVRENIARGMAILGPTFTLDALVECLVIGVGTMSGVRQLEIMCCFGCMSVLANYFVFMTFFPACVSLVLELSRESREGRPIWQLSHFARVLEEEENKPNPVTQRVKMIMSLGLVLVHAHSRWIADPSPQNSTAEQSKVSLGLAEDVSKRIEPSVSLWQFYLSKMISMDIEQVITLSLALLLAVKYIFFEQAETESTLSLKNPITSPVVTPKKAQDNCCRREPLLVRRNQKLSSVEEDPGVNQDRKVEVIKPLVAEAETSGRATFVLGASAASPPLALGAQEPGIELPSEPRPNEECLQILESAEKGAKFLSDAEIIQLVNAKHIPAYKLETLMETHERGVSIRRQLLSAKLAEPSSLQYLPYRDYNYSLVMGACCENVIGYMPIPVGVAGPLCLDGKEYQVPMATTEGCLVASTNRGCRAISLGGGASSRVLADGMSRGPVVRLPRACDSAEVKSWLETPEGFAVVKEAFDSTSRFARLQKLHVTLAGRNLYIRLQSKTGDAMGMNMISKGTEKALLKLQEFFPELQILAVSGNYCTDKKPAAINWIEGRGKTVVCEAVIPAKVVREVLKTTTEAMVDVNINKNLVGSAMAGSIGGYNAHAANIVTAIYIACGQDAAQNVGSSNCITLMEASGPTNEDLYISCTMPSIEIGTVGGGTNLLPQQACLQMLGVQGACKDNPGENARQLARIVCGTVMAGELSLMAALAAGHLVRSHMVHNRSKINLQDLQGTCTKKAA
UniProt Q01237, whole entry: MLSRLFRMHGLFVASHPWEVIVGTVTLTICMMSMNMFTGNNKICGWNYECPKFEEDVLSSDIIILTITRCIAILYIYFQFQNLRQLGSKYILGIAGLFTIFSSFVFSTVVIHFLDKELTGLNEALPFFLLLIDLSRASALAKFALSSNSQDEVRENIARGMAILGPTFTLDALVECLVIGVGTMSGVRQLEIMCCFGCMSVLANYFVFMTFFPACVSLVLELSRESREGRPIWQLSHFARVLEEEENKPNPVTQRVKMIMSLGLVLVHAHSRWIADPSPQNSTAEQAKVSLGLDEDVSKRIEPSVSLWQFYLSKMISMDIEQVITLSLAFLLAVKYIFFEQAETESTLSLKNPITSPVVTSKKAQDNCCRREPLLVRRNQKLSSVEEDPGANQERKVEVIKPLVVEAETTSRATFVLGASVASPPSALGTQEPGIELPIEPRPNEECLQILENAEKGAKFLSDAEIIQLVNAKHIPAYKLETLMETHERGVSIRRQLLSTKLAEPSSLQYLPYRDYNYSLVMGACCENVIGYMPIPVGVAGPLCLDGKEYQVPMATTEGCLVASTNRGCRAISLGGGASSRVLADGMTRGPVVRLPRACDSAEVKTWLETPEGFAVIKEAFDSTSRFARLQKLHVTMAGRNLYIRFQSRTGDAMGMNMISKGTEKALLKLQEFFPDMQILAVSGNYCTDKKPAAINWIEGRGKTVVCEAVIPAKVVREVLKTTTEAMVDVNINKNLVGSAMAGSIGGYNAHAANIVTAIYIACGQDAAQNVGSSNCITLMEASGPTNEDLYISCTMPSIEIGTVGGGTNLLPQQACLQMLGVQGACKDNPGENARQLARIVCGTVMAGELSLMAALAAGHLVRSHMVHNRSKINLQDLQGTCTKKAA

The target in experiment [2] is HMG-CoA-Reduktase (Mus musculus, UniProt Q01237). The experiment in a line: Suppression or inhibition of HMG-CoA reductase in cell cultures of fibroblasts (L cells). To be noted: 3 h incubation of confluent L-Zellen in lipoprotein-free medium, molar concentration for 50% inhibition of HMG-CoA reductase activity. An excerpt: 2. Supprimierung bzw. Inhibierung der HMG-CoA-Reduktase in Zellkulturen von Fibroblasten
Monolayers von Fibroblasten (L-Zellen) in lipoproteinfreiem Nährmedium wurden mit entsprechenden Konzentrationen der Prüfsubstanzen eine bestimmte Zeit (z.B. 3 Stunden) inkubiert, dann wurde die HMG-CoA-Reduktaseaktivität der Zellen, modifiziert nach Chang et al. (J. Biol. Chem. 256, 6174 (1981) bestimmt. Dazu wurden die Zellextrakte mit D, L [^3H]-HMG-CoA inkubiert und das unter der Einwirkung der vorhandenen HMG-CoA-Reduktaseaktivität aus den Zellen gebildete Produkt [3H]-Mevalonat nach Cyclisierung zu [^3H]-Mevalonolacton dünnschichtchromatographisch vom Ausgangsprodukt getrennt und unter Verwendung eines internen Standards von ^14C-Mevalonat die Menge des in der Zeiteinheit gebildeten [3H]-Mevalonats, bezogen auf Zellproteinmenge bestimmt. Die unter Zusatz einer bestimmten Konzentration eines Prüfpräparates gefundene HMG-CoA-Reduktaseaktivität der Zellkultur wurde prozentual auf jene einer gleichbehandelten ohne Prüfpräparat, jedoch gleicher Lösungsmittelkonzentration, bezogen.
Unter der Bedingung einer dreistündigen Inkubationszeit konfluenter L-Zellen im lipoproteinfreien Nährmedium mit den untersuchten Verbindungen wurden folgende für eine 50%ige Hemmung der HMG-CoA-Reduktaseaktivität (ICso) erforderliche molare Konzentration der Prüfpräparate ermittelt: […]

pIC50: −log10 of the molar value. Read-outs that look alike come from different tables or passages of the source.

By pIC50 is commonly meant the negative decadic logarithm of the IC50, by convention in mol/L. Consider `Cc1cc(C)c(OC[C@@H]2C[C@@H](O)CC(=O)O2)c(C(c2ccc(F)cc2)C2CCCCC2)c1` (some centres unmarked), for which, on HMG-CoA-Reduktase [1] (tested form: free lactone), the pIC50 was 7.02.

In the case of `Cc1cc(C)c(OC[C@@H]2C[C@@H](O)CC(=O)O2)c(C(c2ccc(F)cc2)c2cccc(C(F)(F)F)c2)c1` (some centres unmarked), the figures for the negative logarithm of the IC50 (pIC50) against HMG-CoA-Reduktase [2] (tested form: free lactone) and on HMG-CoA-Reduktase [1] (tested form: free lactone) were 4.10 and 7.05, respectively. In the case of `Cc1cc(C)c(OC[C@@H]2C[C@@H](O)CC(=O)O2)c(CCCOc2ccc(F)cc2)c1`, the pIC50 at HMG-CoA-Reduktase [2] was 3.70; on HMG-CoA-Reduktase [1], 6.44.

(Values after patent EP0216127B1, “6-Phenoxymethyl-4-hydroxytetrahydropyran-2-ones, process for their preparation, their use as medicines, pharmaceutical compositions and intermediates” (HOECHST AKTIENGESELLSCHAFT, priority 1985, dated 1987).)
